The text below walks through data of US9278960B2, “Quinoline carboxamide and quinoline carbonitrile derivatives as mGluR2-negative allosteric modulators, compositions, and their use” (Merck Sharp & Dohme Corp., priority 2011, dated 2016).

Sequences of proteins named here, by UniProt entry; tags and fusion partners are left off. Residues count along the entry.
UniProt Q14416, 19-872: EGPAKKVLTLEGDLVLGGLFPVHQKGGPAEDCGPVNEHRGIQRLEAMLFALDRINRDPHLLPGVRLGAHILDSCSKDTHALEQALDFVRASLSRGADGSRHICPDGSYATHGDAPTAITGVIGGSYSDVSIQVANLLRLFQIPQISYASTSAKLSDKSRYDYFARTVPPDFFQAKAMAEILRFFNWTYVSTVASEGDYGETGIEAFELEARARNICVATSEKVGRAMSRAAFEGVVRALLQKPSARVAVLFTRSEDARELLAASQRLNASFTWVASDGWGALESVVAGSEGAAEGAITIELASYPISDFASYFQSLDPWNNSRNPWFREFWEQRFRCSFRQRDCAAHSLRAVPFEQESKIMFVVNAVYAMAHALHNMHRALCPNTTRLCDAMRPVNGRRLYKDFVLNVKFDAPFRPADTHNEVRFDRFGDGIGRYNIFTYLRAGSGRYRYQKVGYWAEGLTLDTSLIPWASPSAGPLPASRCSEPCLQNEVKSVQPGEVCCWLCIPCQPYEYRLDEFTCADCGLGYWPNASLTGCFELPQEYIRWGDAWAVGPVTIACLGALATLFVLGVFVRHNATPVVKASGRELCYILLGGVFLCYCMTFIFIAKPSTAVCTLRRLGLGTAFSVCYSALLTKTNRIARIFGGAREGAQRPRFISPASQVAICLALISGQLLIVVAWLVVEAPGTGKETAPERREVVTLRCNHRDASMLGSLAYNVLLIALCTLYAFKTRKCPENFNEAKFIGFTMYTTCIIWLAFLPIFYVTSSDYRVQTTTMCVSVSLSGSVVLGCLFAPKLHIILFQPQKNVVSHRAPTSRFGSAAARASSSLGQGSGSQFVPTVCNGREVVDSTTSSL

The target in the experiment is human mGluR2 (Homo sapiens (Human), UniProt Q14416). Kind of experiment: FLIPR Ca2+ mobilization antagonist assay in CHO dhfr- cells expressing recombinant human mGluR2 and Gα16. The experiment is classed as cell-based. The conditions noted are these: antagonist response after addition of 2,500 nM glutamate, Fluo-4 AM, FLIPR384. In general terms: Calcium flux is commonly read through the fluorescence of an indicator in the cells.

Each structure is given as a SMILES string. A value given as a limit tells only on which side of the number the result lay.

As usually defined, the IC50 is the concentration at which inhibition is half-maximal. With `CC1C(=O)N(Cc2ccc3c(-c4ccc(F)cc4)cc(C(N)=O)nc3c2)C(=O)C1(C)C` (stereo not shown) [Example 2-22, 4-(4-fluorophenyl)-7-[(3,3,4-trimethyl-2,5-dioxopyrrolidin-1-yl)methyl]quinoline-2-carboxamide], the IC50 came out at 0.047 µM.

On to `CCn1cc(-c2cc(C(N)=O)nc3cc(CN4CCOC(C(F)(F)F)C4)ccc23)cn1` (stereo not shown) [Example 4-77, 4-(1-ethyl-1H-pyrazol-4-yl)-7-{[2-(trifluoromethyl)morpholin-4-yl]methyl}quinoline-2-carboxamide], for which the IC50 turned out to be 0.015 µM. To `CC1(C)CC(=O)N(Cc2ccc3c(-c4ccc(F)cc4)cc(C#N)nc3c2)C(=O)C1` [Example 2-12, 7-[(4,4-dimethyl-2,6-dioxopiperidin-1-yl)methyl]-4-(4-fluorophenyl)quinoline-2-carbonitrile] belongs 0.475 µM. With `C[C@H]1COCCN1Cc1ccc2c(-c3ccc(F)cc3)cc(C(N)=O)nc2c1` [Example 4-38, 4-(4-fluorophenyl)-7-{[(3S)-3-methylmorpholin-4-yl]methyl}quinoline-2-carboxamide], the half-maximal inhibitory concentration (IC50) amounted to 0.057 µM. With `CC1CN(Cc2ccc3c(-c4ccc(F)cc4)cc(C(N)=O)nc3c2)CC(C(F)(F)F)N1` (stereo not shown) [Example 4-114, 4-(4-fluorophenyl)-7-{[3-methyl-5-(trifluoromethyl)piperazin-1-yl]methyl}quinoline-2-carboxamide] the figure was 0.015 µM; with `NC(=O)c1cc(-c2ccc(F)cc2)c2c(F)cc(CN3C(=O)CCC3=O)cc2n1` [Example 7-22, 7-[(2,5-dioxopyrrolidin-1-yl)methyl]-5-fluoro-4-(4-fluorophenyl)quinoline-2-carboxamide], 0.074 µM; with `COc1ccc(-c2cc(C(N)=O)nc3cc(CCc4cccnc4N)ccc23)cc1` [Example 8-30, 7-[2-(2-aminopyridin-3-yl)ethyl]-4-(4-methoxyphenyl) quinoline-2-carboxamide], 0.009 µM. With `NC(=O)c1cc(-c2ccc(F)cc2)c2ccc(Cn3c(CC(F)(F)F)nc4ccccc43)cc2n1` [Example 3-38, 4-(4-fluorophenyl)-7-{[2-(2,2,2-trifluoroethyl)-1H-benzimidazol-1-yl]methyl}quinoline-2-carboxamide] the figure was 0.024 µM.

Take `Cn1cc(-c2cc(C(N)=O)nc3cc(Cc4cc(C5CC5)nc(C(F)(F)F)c4)ccc23)cn1` [Example 6-26, 7-{[2-cyclopropyl-6-(trifluoromethyl)pyridin-4-yl]methyl}-4-(1-methyl-1H-pyrazol-4-yl)quinoline-2-carboxamide]: the IC50 was 0.012 µM.

As for `C[C@H]1CO[C@@H](C(F)(F)F)CN1Cc1ccc2c(-c3cnn(C)c3)cc(C(N)=O)nc2c1` [Example 4-91, 4-(1-methyl-1H-pyrazol-4-yl)-7-{[(2R,5S)-5-methyl-2-(trifluoromethyl)morpholin-4-yl]methyl}quinoline-2-carboxamide], the IC50 was found to be 0.008 µM. In the case of `Cc1nsc(-c2cc(C(N)=O)nc3cc(CN4C[C@@H](C)O[C@@H](C(F)(F)F)C4)ccc23)n1` [Example 4-129, 4-(3-methyl-1,2,4-thiadiazol-5-yl)-7-{[(2R,6R)-2-methyl-6-(trifluoromethyl)morpholin-4-yl]methyl}quinoline-2-carboxamide], the IC50 was over 1 µM. To `Cc1cc(Cl)ccc1-c1cc(C(N)=O)nc2ccccc12` [Example 1-17, 4-(4-chloro-2-methylphenyl)quinoline-2-carboxamide] belongs 0.368 µM. To `Cc1nccn1Cc1ccc2c(-c3ccc(F)cc3)cc(C(N)=O)nc2c1` [Example 3-31, 4-(4-fluorophenyl)-7-[(2-methyl-1H-imidazol-1-yl)methyl]quinoline-2-carboxamide] belongs 0.054 µM.

With `Cc1ccncc1Cc1ccc2c(-c3ccc(F)cc3)cc(C(N)=O)nc2c1` [Example 6-10, 4-(4-fluorophenyl)-7-[(4-methylpyridin-3-yl)methyl] quinoline-2-carboxamide], the IC50 was determined as 0.031 µM.

Take `COC(=O)c1cnn(Cc2ccc3c(-c4ccc(F)cc4)cc(C(N)=O)nc3c2)c1` [Example 3-24, methyl 1-{[2-carbamoyl-4-(4-fluorophenyl)quin-olin-7-yl]methyl}-1H-pyrazole-4-carboxylate]: the concentration for half-maximal inhibition (IC50) was 0.031 µM. Turning to `NC(=O)c1cc(-c2ccc(F)cc2)c2ccc(C(=O)N3CCCCC3)cc2n1` [Example 5-5, 4-(4-fluorophenyl)-7-(piperidin-1-ylcarbonyl)quinoline-2-carboxamide], the IC50 came out at 0.125 µM. With `C[C@H]1CN(Cc2ccc3c(-c4cnn(C)c4)cc(C(N)=O)nc3c2)CCO1` [Example 4-62, 7-{[(2S)-2-methylmorpholin-4-yl]methyl}-4-(1-methyl-1H-pyrazol-4-yl)quinoline-2-carboxamide], the IC50 was 0.252 µM.

For `CC1(c2ccccc2)CC(=O)N(Cc2ccc3c(-c4ccc(F)cc4)cc(C(N)=O)nc3c2)C1=O` (stereo not shown) [Example 2-13, 4-(4-fluorophenyl)-7-[(3-methyl-2,5-dioxo-3-phenylpyrrolidin-1-yl)methyl]quinoline-2-carboxamide], the 50% inhibitory concentration (IC50) amounted to 0.071 µM.

`C[C@@H]1CN(Cc2ccc3c(-c4cnc(CF)s4)cc(C(N)=O)nc3c2)C[C@H](C(F)(F)F)O1` [Example 4-116, 4-[2-(fluoromethyl)-1,3-thiazol-5-yl]-7-{[(2R,6R)-2-methyl-6-(trifluoromethyl)morpholin-4-yl]methyl}quinoline-2-carboxamide]: the IC50 came out at 0.014 µM. To `COc1ncc(Cc2ccc3c(-c4ccc(F)cc4)cc(C(N)=O)nc3c2F)cn1` [Example 7-23, 8-fluoro-4-(4-fluorophenyI)-7-[(2-methoxypyrimidin-5-yl)methyl]quinoline-2-carboxamide] belongs 0.01 µM. With `COc1ccc(-c2cc(C(N)=O)nc3cc(C(C)Cc4cccnc4N)ccc23)cc1` (stereo not shown) [Example 8-37, 7-[2-(2-aminopyridin-3-yl)-1-methylethyl]-4-(4-methoxyphenyl) quinoline-2-carboxamide] the figure was 0.016 µM; with `COc1ccc(Cc2ccc3c(-c4cnn(C)c4)cc(C(N)=O)nc3c2)cn1` [Example 6-17, 7-[(6-methoxypyridin-3-yl)methyl]-4-(1-methyl-1H-pyrazol-4-yl)quinoline-2-carboxamide], 0.048 µM. Take `COC(=O)c1cn(Cc2ccc3c(-c4ccc(F)cc4)cc(C(N)=O)nc3c2)cn1` [Example 3-27, methyl 1-{[2-carbamoyl-4-(4-fluorophenyl)quin-olin-7-yl]methyl}-1H-imidazole-4-carboxylate]: the half-inhibitory concentration (IC50) came out at 0.023 µM.

Regarding `COc1ccc(-c2cc(C(N)=O)nc3cc(C(C)Cc4ccc(CF)nc4)ccc23)cc1` (stereo not shown) [Example 8-47, 7-{2-[6-(fluoromethyl)pyridin-3-yl]-1-methylethyl}-4-(4-methoxyphenyl) quinoline-2-carboxamide], the IC50 is 0.008 µM. `NC(=O)c1cc(-c2ccc(F)cc2)c2ccc(Cc3ccnc(CO)c3)cc2n1` [Example 6-7, 4-(4-fluorophenyl)-7-{[2-(hydroxymethyl)pyridin-4-yl]methyl} quinoline-2-carboxamide]: the half-inhibitory concentration (IC50) is 0.008 µM. To `C[C@@H]1CN(Cc2ccc3c(-c4ccc(F)cc4)cc(C(N)=O)nc3c2)CCN1` [Example 4-103, 4-(4-fluorophenyl)-7-{[(3R)-3-methylpiperazin-1-yl]methyl}quinoline-2-carboxamide] belongs 0.114 µM; to `NC(=O)c1cc(-c2ccc(F)cc2)c2ccc(CN3CCNC(C(F)(F)F)C3)cc2n1` (stereo not shown) [Example 4-87, 4-(4-fluorophenyl)-7-{[3-(trifluoromethyl)piperazin-1-yl]methyl}quinoline-2-carboxamide], 0.014 µM; to `NC(=O)c1cc(-c2ccc(F)cc2)c2ccc(CN3CCNCC3)cc2n1` [Example 4-45, 4-(4-fluorophenyl)-7-(piperazin-1-ylmethyl)quinoline-2-carboxamide], 0.136 µM. For `NC(=O)c1cc(-c2ccc(F)cc2Cl)c2ccccc2n1` [Example 1-19, 4-(2-chloro-4-fluorophenyl)quinoline-2-carboxamide], the IC50 came to 0.1 µM.

For the compound `CC(Cc1cccnc1)c1ccc2c(-c3ccc(F)cc3)cc(C(N)=O)nc2c1` (stereo not shown) [Example 8-24, 4-(4-fluorophenyl)-7-(1-methyl-2-pyridin-3-ylethyl)quinoline-2-carboxamide], the IC50 worked out at 0.02 µM. To `Cn1cc(-c2cc(C(N)=O)nc3cc(CN4CCC(F)CC4)ccc23)cn1` [Example 4-68, 7-[(4-fluoropiperidin-1-yl)methyl]-4-(1-methyl-1H-pyrazol-4-yl)quinoline-2-carboxamide] belongs 0.149 µM; to `CC(C)c1nc2ccccc2n1Cc1ccc2c(-c3ccc(F)cc3)cc(C(N)=O)nc2c1` [Example 3-43, 4-(4-fluorophenyl)-7-{[2-(1-methylethyl)-1H-benzimidazol-1-yl]methyl}quinoline-2-carboxamide], 0.066 µM; to `N#Cc1ccc(Cc2ccc3c(-c4ccc(F)cc4)cc(C(N)=O)nc3c2)cn1` [Example 6-6, 7-[(6-cyanopyridin-3-yl)methyl]-4-(4-fluorophenyl) quinoline-2-carboxamide], 0.013 µM.

For `NC(=O)c1cc(-c2ccc(F)cc2Cl)c2ccc(CN3C(=O)CCC3=O)cc2n1` [Example 2-24, 4-(2-chloro-4-fluorophenyl)-7-[(2,5-dioxopyrrolidin-1-yl)methyl]quinoline-2-carboxamide], the concentration for half-maximal inhibition (IC50) worked out at 0.012 µM. To `NC(=O)c1cc(-c2ccc(F)cc2)c2ccc(C(O)Cc3cccnc3)cc2n1` (stereo not shown) [Example 8-17, 4-(4-fluorophenyl)-7-(1-hydroxy-2-pyridin-3-ylethyl)quinoline-2-carboxamide] belongs 0.005 µM.

`COc1ccc(Cc2ccc3c(-c4ccc(F)cc4)cc(C(N)=O)nc3c2)cc1` [Example 6-13, 4-(4-fluorophenyl)-7-(4-methoxybenzyl) quinoline-2-carboxamide]: the half-inhibitory concentration (IC50) was found to be 0.076 µM. As to `NC(=O)c1cc(-c2c(F)cc(Cl)cc2F)c2ccccc2n1` [Example 1-9, 4-(2,6-dichloro-4-fluorophenyl)quinoline-2-carboxamide], the IC50 is 0.171 µM.
